From patent US6800464B2, “Arthrobacter D-carbamoylase and methods of preparing enantiomerically enriched D-amino acids” (Degussa AG, priority 2001, dated 2004)

Protein sequences, listed by entry. Tags and fused reporters are not part of them.
UniProt A0A1H1C375, entry or part of it: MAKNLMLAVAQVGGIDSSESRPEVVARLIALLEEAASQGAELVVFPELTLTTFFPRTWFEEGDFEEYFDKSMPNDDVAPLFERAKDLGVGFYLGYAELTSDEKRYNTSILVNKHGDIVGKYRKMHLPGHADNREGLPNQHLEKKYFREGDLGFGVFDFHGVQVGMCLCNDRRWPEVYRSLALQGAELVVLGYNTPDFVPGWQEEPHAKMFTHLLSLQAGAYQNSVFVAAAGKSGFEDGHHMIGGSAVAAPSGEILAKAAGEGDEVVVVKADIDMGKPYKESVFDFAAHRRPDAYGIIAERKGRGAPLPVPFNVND

Experiments:
D-carbamoylase = conditions: induction time of approx. six hours, E. coli JM109, ttg start codon clone
[1] = target: D-carbamoylase from Arthrobacter crystallopoietes DSM 20117 (Crystallibacter crystallopoietes, UniProt A0A1H1C375); experiment: Substrate specificity of the purified D-carbamoylase (relative conversion of carbamoyl substrates); assay type: biochemical; conditions: 30° C., 0.1 M potassium phosphate buffer pH 8.0, 20 mM
Description: The homogeneously purified D-carbamoylase with the His-tag and ttg start codon (pMW1 —FIG. 5) was used for characterization of the enzyme obtained in this way. The enzyme was present in 0.1 M KPB pH 8.0.
To determine the substrate spectrum, the enzyme was incubated at a reaction temperature of 30° C. with the particular substrate in the presence of 0.1 M potassium phosphate buffer pH 8.0. To ensure the same concentration of the D-isomer, if the substrate was present as an isomer mixture a concentration of 20 mM was established; if the substrate was present as a pure isomer a concentration of 10 mM was established.

Structure (SMILES): CCc1ccccc1 (racemic) [D,L-Carbamoyl-phenylalanine]
- specific activity (maximum) (D-carbamoylase): 2 U/mg
- activity corresponding to 100% relative activity (reference substrate) [1]: 2 U/mg
